Reference: publication PMC5799093, “Proceedings of Réanimation 2018, the French Intensive Care Society International Congress” (Annals of Intensive Care, 2018)

System: Klebsiella pneumoniae

O=C(O)c1cn(C2CC2)c2cc(N3CCNCC3)c(F)cc2c1=O [ciprofloxacin]
resistance rate: 68%
